Apparent affinities of Ab-14 variants for a coronavirus HR2 peptide

Data: MIT Lincoln Laboratory AlphaSeq set, Engelhart et al. 2022, doi:10.1038/s41597-022-01779-4, as distributed in FLAb.

All variants were tested on one target, the spike HR2 peptide PDVDLGDISGINAS (SARS-CoV-2).

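Phage display of a naive human antibody library on the peptide gave the parent. In library AAYL49, one, two or three CDR residues were substituted; doubles and triples were drawn at random. Affinity was read by AlphaSeq, a pooled yeast mating assay with surface-displayed partners. Mating (16 h, 30 °C) was followed by selection of diploids and sequencing of their barcodes. Read counts were normalised to the haploid input and turned into Kd by a linear fit to BCL2-family pairs of known affinity, for each replicate. Mating was done three times.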

Each scFv is VH, a (GGGGS)3 linker, VL, as in the parent Ab-14, and differs from it in the CDRs of the heavy chain only.
VH: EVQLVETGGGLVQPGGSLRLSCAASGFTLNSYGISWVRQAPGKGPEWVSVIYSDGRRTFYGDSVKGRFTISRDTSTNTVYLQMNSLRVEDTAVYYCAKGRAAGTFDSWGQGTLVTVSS
VL: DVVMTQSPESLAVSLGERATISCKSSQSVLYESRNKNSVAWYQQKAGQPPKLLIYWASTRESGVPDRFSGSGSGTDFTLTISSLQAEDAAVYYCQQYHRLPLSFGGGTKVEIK

Substitutions are numbered in sequence along the VH above, starting at 1 (not Kabat).
This list gathers variants with a substitution at F59 (VH, numbered from residue 1).
The Kd shown is the geometric mean over detected replicates; a lower Kd is a better binder.
"no signal" means that the variant was in the library but no mating with the target was seen in any replicate; the authors take this as a sign of poor binding, and no number exists.

For F27L G33P F59I, the assay gave no signal (0 of 3 replicates). For D54Q F59H G103C, the assay gave no signal (0 of 3 replicates). For F59L K65D R100W, the assay gave no signal (0 of 3 replicates). With D54A F59A T104G the result was no signal (0 of 3 replicates). The variant I51T D54F F59W gave 530 nM (1 of 3 replicates).

With F27D F59E D62K the result was 15 nM (3 of 3 replicates). For F59I V64M G99F, the assay gave 770 µM (1 of 3 replicates). With F59D G103H S107I the result was no signal (0 of 3 replicates). The variant F59R G61I S107A gave no signal (0 of 3 replicates). With I34K F59S A101M the result was no signal (0 of 3 replicates).

For F59A Y60A, the assay gave 2.9 µM (1 of 3 replicates). For V50D T58W F59T, the assay gave no signal (0 of 3 replicates). The variant T58K F59A G103S gave 170 nM (3 of 3 replicates). The variant I34R S53E F59S gave 5.7 µM (2 of 3 replicates). The variant L29F Y32V F59D showed 150 µM (2 of 3 replicates).

With F59A Y60P G61Y the result was 12 µM (1 of 3 replicates). The variant G26F F59I F105V gave no signal (0 of 3 replicates). The variant G55S T58K F59E gave 2.2 µM (1 of 3 replicates). The variant I51A R57P F59I showed no signal (0 of 3 replicates). The variant G33P Y52T F59C gave no signal (0 of 3 replicates).

The variant F59C R100D A101T showed 1.9 µM (3 of 3 replicates). With S35F F59Y G99A the result was no signal (0 of 3 replicates). With Y52N F59H A101K the result was no signal (0 of 3 replicates). The variant F27Y F59T F105R gave no signal (0 of 3 replicates). With Y32L F59V G103C the result was no signal (0 of 3 replicates).

The variant G26Y R56Q F59V showed 1.0 µM (2 of 3 replicates). The variant D54P F59W D62A showed 15 µM (1 of 3 replicates). The variant F59L G103Y gave 2.9 µM (3 of 3 replicates). For T28R F59Q, the assay gave 220 nM (3 of 3 replicates). The variant F59W gave 28 nM (3 of 3 replicates).

The variant S31P F59A F105E gave no signal (0 of 3 replicates). With I51L T58N F59L the result was 2.2 µM (1 of 3 replicates). The variant L29N Y52S F59N showed 15 µM (3 of 3 replicates). The variant I51G F59W G103M gave no signal (0 of 3 replicates). The variant F59K Y60R K65Q gave 68 µM (1 of 3 replicates).

The variant T58E F59C showed no signal (0 of 3 replicates). With F59R A101Y G103M the result was no signal (0 of 3 replicates). For T28G F59S S63I, the assay gave 630 nM (2 of 3 replicates).

The opening 6 entries, copied out:

changes	Kd	replicates with signal
F27L G33P F59I	no signal	0 of 3
D54Q F59H G103C	no signal	0 of 3
F59L K65D R100W	no signal	0 of 3
D54A F59A T104G	no signal	0 of 3
I51T D54F F59W	530 nM	1 of 3
F27D F59E D62K	15 nM	3 of 3

As a blank, each scFv also met three strains without target: over library AAYL49, 15% of these pairings were detected, typically at 11 µM and seldom below 680 nM.